# Biological target: human Gal-3 (hGal-3) (Homo sapiens (Human), UniProt P17931)
# Protein sequences, listed by entry. Tags and fused reporters are not part of them.
# UniProt P17931, whole entry: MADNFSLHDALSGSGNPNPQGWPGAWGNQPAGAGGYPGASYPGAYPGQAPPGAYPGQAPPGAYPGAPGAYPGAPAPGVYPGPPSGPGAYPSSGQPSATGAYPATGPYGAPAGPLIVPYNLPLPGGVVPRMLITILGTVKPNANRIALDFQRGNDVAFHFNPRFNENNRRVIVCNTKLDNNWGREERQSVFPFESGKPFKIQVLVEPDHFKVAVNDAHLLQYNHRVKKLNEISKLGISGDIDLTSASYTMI
# Experiment: Competitive binding assay: binding of biotinylated hGal-3 to microplate-adsorbed asialofetuin (ASF)
# Conditions: read-out: Gal-3 IC50; Activity on hGal-3; mean values of several measurements
row,IC50 [nM],Structure (SMILES)
1,700,OC[C@H]1O[C@H](CC2CC(c3ccc(F)cc3)=NO2)[C@H](O)[C@@H](n2cc(-c3cc(F)c(F)c(F)c3)nn2)[C@H]1O (stereo partly shown)
2,200,"CO[C@@H]1[C@@H](n2cc(-c3ccc(C)c(F)c3F)nn2)[C@@H](O)[C@@H](CO)O[C@@H]1Cc1cc(C(C)c2ccccc2)no1 (single isomer, unassigned)"
3,170,"CO[C@@H]1[C@@H](n2cc(-c3cc(F)c(F)c(F)c3)nn2)[C@@H](O)[C@@H](CO)O[C@@H]1Cc1cc(C2CCS(=O)(=NC(C)C)CC2)no1 (single isomer, unassigned) [1.147]"
4,59,"CO[C@@H]1[C@@H](n2cc(-c3cc(F)c(F)c(F)c3)nn2)[C@@H](O)[C@@H](CO)O[C@@H]1Cc1cc(C2CCS(=O)(=NC(C)C)CC2)no1 (single isomer, unassigned) [1.148]"
